Experimental findings from patent US7511063B2, “High affinity quinoline-based kinase ligands” (Schering Corporation, priority 2006, dated 2009) are described below.

pIC50: −log10 of the molar value. Bounds are passed on as bounds.

The assay has as its target CDK-2 (Homo sapiens, UniProt P24941). Put plainly: Fluorescence polarization displacement assay (inhibitory effectiveness toward CDK-2). The settings on record: IC50, inhibitory effectiveness toward CDK-2.
For `CCC(C)[C@H](NC(=O)c1cc(C(=O)NC(Cc2ccc(O)cc2)C(=O)OC)nc2ccc(-c3cccs3)cc12)C(=O)O` (stereo partly drawn) [Compound 132], the pIC50 is 4.40 to 6.00.

Take `COC(=O)[C@H](Cc1ccc(O)cc1)NC(=O)c1cc(C(=O)O)c2cc(-c3ccc(O)cc3)ccc2n1` [Compound 134]: the pIC50 is 4.40 to 6.00.

`COC[C@H](Cc1ccc(O)cc1)NC(=O)c1cc(C(=O)O)c2cc(-c3cccc(CN4CCOCC4)c3)ccc2n1` [Compound 138] gave a pIC50 of 4.40 to 6.00.

`O=C(N[C@@H](Cc1ccc(O)cc1)C(=O)O)c1cc(C(=O)O)c2cc(-c3cccc(Cl)c3)ccc2n1` [Compound 140]: the pIC50 is 4.40 to 6.00.

`NC[C@H](Cc1ccc(O)cc1)NC(=O)c1cc(C(=O)O)c2cc(C#Cc3ccccn3)ccc2n1` [Compound 142] gave a pIC50 of 4.40 to 6.00.

Molecule `NC(=O)[C@H](Cc1ccc(O)cc1)NC(=O)c1cc(C(=O)O)c2cc(-c3cccs3)ccc2n1` [Compound 143] showed a pIC50 of 4.40 to 6.00.

Turning to `COC[C@H](Cc1ccc(O)cc1)NC(=O)c1cc(C(=O)OC)c2cc(-c3cccc(C(F)(F)F)c3)ccc2n1` [Compound 144], the pIC50 was 4.40 to 6.00.

`COC[C@H](Cc1ccc(O)cc1)NC(=O)c1cc(C(=O)O)c2cc(COc3cccc(F)c3)ccc2n1` [Compound 147] had a pIC50 of 4.40 to 6.00.

`COC[C@H](Cc1ccc(O)cc1)NC(=O)c1cc(C(=O)O)c2cc(COc3cccnc3)ccc2n1` [Compound 149] gave a pIC50 of 4.40 to 6.00.

The molecule `COC[C@H](Cc1ccc(O)cc1)NC(=O)c1cc(C(=O)O)c2cc(CSc3cccs3)ccc2n1` [Compound 150] had a pIC50 of 4.40 to 6.00.

Take `COC(=O)C(Cc1ccc(O)cc1)NC(=O)c1cc(C(=O)N[C@H](C(=O)O)C(C)C)c2cc(-c3cccs3)ccc2n1` (stereo partly drawn) [Compound 153]: the pIC50 was 4.40 to 6.00.

As for `COC(=O)[C@H](Cc1ccc(O)cc1)NC(=O)c1cc(C(=O)O)c2cc(C(C)c3ccccc3)ccc2n1` (stereo partly drawn) [Compound 160], the pIC50 was less than 4.40.

`COC(=O)[C@H](Cc1ccc([N+](=O)[O-])cc1)NC(=O)c1cc(C(=O)O)c2cc(-c3cccc(C(F)(F)F)c3)ccc2n1` [Compound 161] had a pIC50 of less than 4.40.

In turn, `COC(=O)[C@H](Cc1ccc(OC(C)(C)C)cc1)NC(=O)c1cc(C(=O)O)c2cc(/C=C/C(C)(C)C)ccc2n1` [Compound 165] had a pIC50 of less than 4.40.

`COC(=O)[C@H](Cc1ccccc1F)NC(=O)c1cc(C(=O)O)c2cc(-c3cccc(C(F)(F)F)c3)ccc2n1` [Compound 167] showed a pIC50 of less than 4.40.

`COC(=O)[C@H](Cc1ccc(O)cc1)N(C)C(=O)c1cc(C(=O)O)c2cc(-c3cccc(C(F)(F)F)c3)ccc2n1` [Compound 168]: the pIC50 is less than 4.40.

`COC[C@H](Cc1ccc(O)cc1)NC(=O)c1cc(N(C)S(=O)(=O)C(C)(C)C)c2cc(-c3cccc(C(F)(F)F)c3)ccc2n1` [Compound 178] showed a pIC50 of less than 4.40.

For `COC[C@H](Cc1ccc(O)cc1)NC(=O)c1cc(N2CCCCS2(=O)=O)c2cc(-c3cccc(C(F)(F)F)c3)ccc2n1` [Compound 179], the pIC50 is less than 4.40.

Consider `COC[C@H](Cc1ccc(O)cc1)NC(=O)c1cc(C(=O)O)c2cc(-c3cccc(CN4CCN(C)CC4)c3)ccc2n1` [Compound 184], for which the pIC50 was less than 4.40.

Turning to `COC[C@H](Cc1ccc(O)cc1)NC(=O)c1cc(C(=O)O)c2cc(-c3cccc(CN4CCC(O)CC4)c3)ccc2n1` [Compound 193], the pIC50 was less than 4.40.

Turning to `COC[C@H](Cc1ccc(O)cc1)NC(=O)c1cc(C(=O)O)c2cc(-c3cccc(CN(C)CCN(C)C)c3)ccc2n1` [Compound 194], the pIC50 is less than 4.40.

Regarding `CNCc1cccc(-c2ccc3nc(C(=O)N[C@H](COC)Cc4ccc(O)cc4)cc(C(=O)O)c3c2)c1` [Compound 195], the pIC50 is less than 4.40.

On to `COC[C@H](Cc1ccc(O)cc1)NC(=O)c1cc(C(=O)O)c2cc(-c3cccc(CNCCO)c3)ccc2n1` [Compound 196], for which the pIC50 was less than 4.40.

On to `COC[C@H](Cc1ccc(O)cc1)NC(=O)c1cc(C(=O)O)c2cc(-c3cccc(CNCCN(C)C)c3)ccc2n1` [Compound 198], for which the pIC50 was less than 4.40.

`COC[C@H](Cc1ccc(O)cc1)NC(=O)c1cc(C(=O)O)c2cc(CSc3cccc(Cl)c3)ccc2n1` [Compound 209] showed a pIC50 of less than 4.40.

Molecule `COC[C@H](Cc1ccc(O)cc1)NC(=O)c1cc(-n2ccnc2)c2cc(-c3cccc(Cn4ccnc4)c3)ccc2n1` [Compound 212] showed a negative logarithm of the IC50 (pIC50) of less than 4.40.

As to `COC[C@H](Cc1ccc(O)cc1)NC(=O)c1cc(C(=O)OC[C@@H](N)C(C)C)c2cc(/C=C/c3ccc(Cl)cc3)ccc2n1` [Compound 216], the pIC50 was less than 4.40.

The molecule `COC[C@H](Cc1ccc(O)cc1)NC(=O)c1cc(C(=O)O)c2cc(C#CCN)ccc2n1` [Compound 221] had a pIC50 of less than 4.40.

Molecule `COC[C@H](Cc1ccc(O)cc1)NC(=O)c1cc(C(=O)O)c2cc(C#CCON)ccc2n1` [Compound 222] showed a pIC50 of less than 4.40.

`COC[C@H](Cc1ccc(O)cc1)NC(=O)c1cc(C(=O)O)c2cc(C#CCCn3ccnc3)ccc2n1` [Compound 223]: the pIC50 is less than 4.40.

Turning to `COC(=O)[C@H](Cc1ccc(O)cc1)NC(=O)c1cc(C(=O)OCC(O)CO)c2cc(-c3cccs3)ccc2n1` (stereo partly drawn) [Compound 232], the pIC50 was less than 4.40.

On to `COC(=O)[C@H](Cc1ccc(O)cc1)NC(=O)c1cc(C(=O)OCCN(C)C)c2cc(-c3cccs3)ccc2n1` [Compound 233], for which the pIC50 is less than 4.40.

Turning to `COC(=O)C(Cc1ccc(O)cc1)NC(=O)c1cc(C(=O)N(C)C)c2cc(-c3cccs3)ccc2n1` (stereo not drawn) [Compound 236], the pIC50 is less than 4.40.

In general, pIC50 refers to the IC50 on a negative log10 scale, so that one unit is a factor of ten. A lower pIC50 goes with a high IC50.
